Molecular target: T1, AP-2α (TP304603, Origene) (UniProt P05549 1-437)
T1 construct: transcription factor AP-2α, bought recombinant protein, Origene TP304603; also called coated AP-2α; source: bought: Origene (TP304603)
Assay: ELISA; 200 nM AP-2α coated; increasing concentrations of KCTD1^WT (from 18 nM to 500 nM); detection with an anti-KCTD1 antibody
Conditions: both partners purified

Chains of the proteins cited; added tags and fusions are not shown. Lines headed by an entry give the natural chain unless they say otherwise; changes in a name come on top.
UniProt P05549: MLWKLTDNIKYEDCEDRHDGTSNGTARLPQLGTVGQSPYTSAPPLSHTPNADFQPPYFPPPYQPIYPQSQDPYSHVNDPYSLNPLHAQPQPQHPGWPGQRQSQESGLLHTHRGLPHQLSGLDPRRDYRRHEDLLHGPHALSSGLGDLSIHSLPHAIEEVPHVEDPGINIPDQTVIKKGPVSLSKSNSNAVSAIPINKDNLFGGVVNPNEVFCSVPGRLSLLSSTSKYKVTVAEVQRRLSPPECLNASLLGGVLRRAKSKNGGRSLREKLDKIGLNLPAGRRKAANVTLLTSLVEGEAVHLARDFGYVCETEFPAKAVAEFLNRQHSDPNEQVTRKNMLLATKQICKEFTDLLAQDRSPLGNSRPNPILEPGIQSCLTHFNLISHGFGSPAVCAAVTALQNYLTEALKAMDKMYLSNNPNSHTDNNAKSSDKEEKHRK

Kd: 30 nM
B1: KCTD1^WT (protein used in the ELISA and thioflavin T experiments) (natural protein, UniProt Q719H9 1-257, looked up)
chain: MSRPLITRSPASPLNNQGIPTPAQLTKSNAPVHIDVGGHMYTSSLATLTKYPESRIGRLFDGTEPIVLDSLKQHYFIDRDGQMFRYILNFLRTSKLLIPDDFKDYTLLYEEAKYFQLQPMLLEMERWKQDRETGRFSRPCECLVVRVAPDLGERITLSGDKSLIEEVFPEIGDVMCNSVNAGWNHDSTHVIRFPLNGYCHLNSVQVLERLQQRGFEIVGSCGGGVDSSQFSEYVLRRELRRTPRVPSVIRIKQEPLD
notes: wild-type KCTD1 protein; also called WT KCTD1

Reference: article PMC10866662 (The Journal of Clinical Investigation, 2023)
